The values below come from paper PMC11988800, “A Comprehensive In Vitro and In Silico Approach for Targeting 4-Hydroxyphenyl Pyruvate Dioxygenase: Towards New Therapeutics for Alkaptonuria” (International Journal of Molecular Sciences, 2025).

The chains behind the UniProt entries cited, without tags or fusion partners. Where a name states a change or a piece, a line headed by the entry shows the natural chain unless it says otherwise.
UniProt P32754: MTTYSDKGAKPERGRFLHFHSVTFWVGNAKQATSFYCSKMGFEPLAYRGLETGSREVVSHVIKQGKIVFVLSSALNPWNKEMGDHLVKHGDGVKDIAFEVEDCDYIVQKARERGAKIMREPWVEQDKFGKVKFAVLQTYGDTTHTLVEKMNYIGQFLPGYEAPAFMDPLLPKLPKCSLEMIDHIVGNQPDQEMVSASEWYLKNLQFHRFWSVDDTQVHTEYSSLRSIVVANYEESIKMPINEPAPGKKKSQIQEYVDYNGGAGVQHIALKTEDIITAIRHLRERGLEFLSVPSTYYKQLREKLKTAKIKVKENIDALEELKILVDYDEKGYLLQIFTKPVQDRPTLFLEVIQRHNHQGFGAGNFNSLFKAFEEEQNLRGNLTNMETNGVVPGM

The assay addresses human 4-HPPD (Homo sapiens, UniProt P32754). Briefly: Residence time evaluation by optimized jump dilution method in recombinant E. coli expressing human 4-HPPD.

Take `O=C1CCCC(=O)C1C(=O)c1ccc(C(F)(F)F)cc1[N+](=O)[O-]` [NTBC, Nitisinone]: the off-rate constant (koff) was 0.000167 s⁻¹ and the residence time came to 103 ± 15.2 min.
